Data from patent publication EP0975608B1.

Chains of the proteins cited; added tags and fusions are not shown. Residues count along the entry.
UniProt P05106, 27-788 limits assumed: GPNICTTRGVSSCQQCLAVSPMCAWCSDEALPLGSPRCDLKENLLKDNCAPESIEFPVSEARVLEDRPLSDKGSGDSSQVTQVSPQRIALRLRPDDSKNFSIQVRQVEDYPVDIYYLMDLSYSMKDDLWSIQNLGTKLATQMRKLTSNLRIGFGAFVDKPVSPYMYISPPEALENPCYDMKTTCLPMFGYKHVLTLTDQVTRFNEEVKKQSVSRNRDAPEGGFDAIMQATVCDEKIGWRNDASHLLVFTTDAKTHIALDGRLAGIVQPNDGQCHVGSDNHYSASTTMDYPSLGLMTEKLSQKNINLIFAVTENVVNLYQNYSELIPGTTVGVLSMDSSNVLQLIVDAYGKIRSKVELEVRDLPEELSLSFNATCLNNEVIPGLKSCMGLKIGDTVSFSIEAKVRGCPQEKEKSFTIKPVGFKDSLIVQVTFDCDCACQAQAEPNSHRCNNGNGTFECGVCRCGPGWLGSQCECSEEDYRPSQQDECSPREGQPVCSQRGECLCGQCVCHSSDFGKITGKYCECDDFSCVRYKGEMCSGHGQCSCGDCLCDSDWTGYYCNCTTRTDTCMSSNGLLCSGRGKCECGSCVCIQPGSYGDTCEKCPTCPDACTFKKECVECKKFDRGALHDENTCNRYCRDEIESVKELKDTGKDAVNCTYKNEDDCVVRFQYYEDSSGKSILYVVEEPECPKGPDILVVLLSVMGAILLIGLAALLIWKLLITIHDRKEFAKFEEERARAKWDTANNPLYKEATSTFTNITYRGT
UniProt P08514, 32-887 limits assumed: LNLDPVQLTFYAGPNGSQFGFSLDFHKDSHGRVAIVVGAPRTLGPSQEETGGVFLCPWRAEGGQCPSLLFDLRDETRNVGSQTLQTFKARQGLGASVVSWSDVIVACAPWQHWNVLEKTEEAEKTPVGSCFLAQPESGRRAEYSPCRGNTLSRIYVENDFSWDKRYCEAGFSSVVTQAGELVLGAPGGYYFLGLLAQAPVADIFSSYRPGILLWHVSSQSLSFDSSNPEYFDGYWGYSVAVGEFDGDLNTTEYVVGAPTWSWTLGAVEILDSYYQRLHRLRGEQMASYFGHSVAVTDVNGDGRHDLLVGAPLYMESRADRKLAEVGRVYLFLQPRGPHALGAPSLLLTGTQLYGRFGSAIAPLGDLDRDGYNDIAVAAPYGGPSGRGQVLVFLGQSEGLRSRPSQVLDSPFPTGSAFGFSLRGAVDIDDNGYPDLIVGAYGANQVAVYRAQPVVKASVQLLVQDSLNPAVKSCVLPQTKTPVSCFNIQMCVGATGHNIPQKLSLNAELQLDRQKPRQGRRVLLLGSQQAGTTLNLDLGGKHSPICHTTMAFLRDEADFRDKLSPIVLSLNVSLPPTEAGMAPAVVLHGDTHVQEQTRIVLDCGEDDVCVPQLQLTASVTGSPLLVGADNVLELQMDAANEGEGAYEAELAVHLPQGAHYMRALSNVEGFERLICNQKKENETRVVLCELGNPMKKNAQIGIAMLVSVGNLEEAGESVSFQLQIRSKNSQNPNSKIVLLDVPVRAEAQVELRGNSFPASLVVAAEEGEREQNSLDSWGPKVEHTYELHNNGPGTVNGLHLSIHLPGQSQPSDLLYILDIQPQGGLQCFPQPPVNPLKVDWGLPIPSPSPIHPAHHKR

Tests used:
[1] = tested on: ex vivo platelet aggregation; assay: Mouse ID50: ex vivo platelet aggregation after oral dosing; details: mice dosed at 100 mg/kg orally, sacrificed at 1 or 3 hours
GPIIb/IIIa = GPIIb/IIIa (Homo sapiens, UniProt P05106+P08514); assay: ADP induced platelet aggregation (PA) in citrated plasma; details: read-out: IC50(PA)

IC50 (GPIIb/IIIa) | SMILES | Mouse ID50 [1]
85 nM | CN1C(=O)CN(CCC(=O)O)C(=O)c2c1ccc(NC(=O)c1ccc(C(=N)N)cc1)c2Cl | 7.2 mg/kg
 | CN1C(=O)CN(CCC(=O)O)C(=O)c2cc(C#Cc3ccc(C(=N)N)cc3)ccc21 | 20 mg/kg
59 nM | CN1C(=O)CN(CCC(=O)O)C(=O)c2cc(NC(=O)c3ccc(C(=N)N)cc3)ccc21 | 9.5 mg/kg
76 nM | CCN1C(=O)CN(CCC(=O)O)C(=O)c2cc(OCc3ccc(C(=N)N)cc3)ccc21 | 20.3 mg/kg
